# Apparent affinities of Ab-14 variants for a coronavirus HR2 peptide

Target peptide (SARS-CoV-2 spike, HR2 region): PDVDLGDISGINAS

The variants keep the light chain, the linker and the frameworks of Ab-14 (scFv order VH, a (GGGGS)3 linker, VL).
VH: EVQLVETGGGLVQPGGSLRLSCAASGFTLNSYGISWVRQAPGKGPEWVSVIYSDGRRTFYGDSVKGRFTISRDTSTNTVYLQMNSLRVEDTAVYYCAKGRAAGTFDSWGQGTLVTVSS
VL: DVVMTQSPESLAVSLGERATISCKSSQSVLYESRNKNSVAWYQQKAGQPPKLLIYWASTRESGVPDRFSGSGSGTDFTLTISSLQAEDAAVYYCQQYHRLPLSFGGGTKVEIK

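The parent was found by panning a naive human phage display library on the peptide. Variants in AAYL49 differ from the parent at up to three CDR positions; double and triple changes were sampled at random. AlphaSeq pools MATa yeast showing the antibodies with MATalpha yeast showing the peptide. The frequency of each diploid, read from paired DNA barcodes, reflects how well the two displayed proteins bind. A regression on co-assayed BCL2-family reference pairs converts the normalised counts of each replicate to an apparent Kd. Each pool was mated in three replicate cultures.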

Changes read parent residue, position, new residue, counted from the first residue of the VH shown. All variants listed here change G33 of the VH, counted from its first residue. Values are apparent Kd, the geometric mean of the replicates that gave a signal; lower means stronger binding. "not detected" means that the variant was in the library but no mating with the target was seen in any replicate; the authors take this as a sign of poor binding, and no number exists. Empty control strains, which show no peptide, gave a signal in 15% of pairings with library AAYL49; the median was 11 µM and 95% of these signals were weaker than 680 nM. No background was subtracted. For each scFv, signals with the empty controls are counted beside the result.

| changes | Kd (apparent) | detected | signal with controls |
|---|---|---|---|
| L29A/G33Y/Y52V | not detected | 0/3 | 0/9 |
| G33K/D106Q | not detected | 0/3 | 3/9 |
| G33L/D54R/K65N | not detected | 0/3 | 1/9 |
| G33T/A102W/F105R | 3.2 mM | 1/3 | 3/9 |
| F27N/S31F/G33C | 3.8 µM | 2/3 | 4/9 |
| G33F/G55R/G103S | 10 µM | 1/3 | 3/9 |
| G33P/D54M/A102R | not detected | 0/3 | 4/9 |
| Y32H/G33Y/I34P | not detected | 0/3 | 1/9 |
| G33R/G61E/S107G | not detected | 0/3 | 3/9 |
| Y32G/G33N/D106E | 570 nM | 1/3 | 0/9 |
| G33Q/A102R/T104H | not detected | 0/3 | 0/9 |
| G26S/F27R/G33T | not detected | 0/3 | 0/9 |
| G33L/S53P/G103L | not detected | 0/3 | 0/9 |
| N30V/G33P/G55F | not detected | 0/3 | 0/9 |
| G33H/Y52F/D106C | 1.1 mM | 1/3 | 2/9 |
| G33W/F59G/S107W | not detected | 0/3 | 3/9 |
| G33S/T104G | not detected | 0/3 | 1/9 |
| G33D | 26 µM | 1/3 | 1/9 |
| G33V/R57H/F59P | 8.7 µM | 1/3 | 0/9 |
| G33K/G103N | not detected | 0/3 | 3/9 |
| G33A/V50M/D54C | not detected | 0/3 | 0/9 |
| G26T/G33K/G55A | 240 µM | 1/3 | 2/9 |
| G33R/F59C/T104K | not detected | 0/3 | 0/9 |
| G33V/G55Q/D106E | 2.7 µM | 2/3 | 1/9 |
| G33C/R56T/S63Q | not detected | 0/3 | 0/9 |
| L29I/N30V/G33W | 92 µM | 2/3 | 2/9 |
| G26K/G33S/R56I | not detected | 0/3 | 2/9 |
| Y32W/G33D/K65L | not detected | 0/3 | 1/9 |
| G33E/S53K | 1.3 µM | 2/3 | 2/9 |
| G33W/G99C | not detected | 0/3 | 1/9 |
| G33L | 5.3 µM | 1/3 | 3/9 |
| G33A/S35G/F59V | 660 nM | 2/3 | 2/9 |
| G33Y/I34P | not detected | 0/3 | 1/9 |
| G33M/G61D/T104V | not detected | 0/3 | 0/9 |
| G26V/G33E/D62R | 54 µM | 2/3 | 6/9 |
| T28R/G33S/T58A | not detected | 0/3 | 1/9 |
| G33V/G55A/Y60G | not detected | 0/3 | 0/9 |
| G33S/G61V/R100T | not detected | 0/3 | 2/9 |
| G33E/I51Y/K65D | 8.0 µM | 2/3 | 1/9 |
| G33P/V64I/A102K | not detected | 0/3 | 0/9 |
| G33C/I34D/K65M | 87 µM | 2/3 | 3/9 |
| G33K/K65T/R100L | 62 µM | 1/3 | 0/9 |
| G33V/I34L/G55A | not detected | 0/3 | 0/9 |
| G33E/R56M/R100V | 740 nM | 1/3 | 0/9 |
| G26A/G33V/T58L | not detected | 0/3 | 0/9 |
| G33V/S53Y/T58P | not detected | 0/3 | 0/9 |
| S31H/G33C/D106M | not detected | 0/3 | 3/9 |
| G33K/V64R/A101S | 2.3 µM | 1/3 | 3/9 |
| T28A/G33Y/D62P | not detected | 0/3 | 1/9 |
| G33L/R56N/K65C | not detected | 0/3 | 0/9 |
| T28K/G33H/S53A | 12 µM | 2/3 | 2/9 |
| G33N/D54P/G55A | not detected | 0/3 | 0/9 |
| T28H/G33V/R56D | 46 µM | 3/3 | 3/9 |
| G33S/I34M/F59P | not detected | 0/3 | 2/9 |
| T28M/G33I/V64T | not detected | 0/3 | 0/9 |
| G33F/G61D | not detected | 0/3 | 1/9 |

From the AlphaSeq antibody data of Engelhart et al. 2022 (doi:10.1038/s41597-022-01779-4), copy in the FLAb collection.